Molecular target: Delta-type opioid receptor (Homo sapiens) (UniProt P41143)
Test: % stimulation of GTPgammaS binding in cloned human Opioid receptor delta 1 transfected into hamster ovary cells with respect to DPDPE

The chains behind the UniProt entries cited, without tags or fusion partners.
UniProt P41143, whole entry, looked up: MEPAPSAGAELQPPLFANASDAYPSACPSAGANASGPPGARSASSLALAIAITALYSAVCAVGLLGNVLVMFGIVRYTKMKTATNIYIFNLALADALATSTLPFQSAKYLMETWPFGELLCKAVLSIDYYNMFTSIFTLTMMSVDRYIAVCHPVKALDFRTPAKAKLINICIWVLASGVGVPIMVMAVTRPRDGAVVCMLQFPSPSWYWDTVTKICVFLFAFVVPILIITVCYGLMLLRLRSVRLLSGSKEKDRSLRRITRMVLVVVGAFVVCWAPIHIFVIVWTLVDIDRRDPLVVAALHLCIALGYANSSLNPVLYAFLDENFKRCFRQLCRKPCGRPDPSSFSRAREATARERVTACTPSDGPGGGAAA

**Q.** For `CO[C@@]12CC[C@@]3(C[C@@H]1[C@](C)(O)C(C)(C)C)[C@H]1Cc4ccc(O)c5c4[C@@]3(CCN1CC1CC1)[C@H]2O5`, which Stimulation is on record?
**A.** Its Stimulation is under 20%.

From ChEMBL document CHEMBL1133656, “Structural determinants of efficacy for kappa opioid receptors in the orvinol series: 7,7-spiro analogues of buprenorphine” (2000)
